The results in this text go back to ChEMBL document CHEMBL1134311, “Nonsteroidal selective glucocorticoid modulators: the effect of C-5 alkyl substitution on the transcriptional activation/repression profile of 2,5-dihydro-10-methoxy-2,2,4-trimethyl-1H-[1]benzopyrano[3,4-f]quinolines” (J Med Chem, 2001).

The target of assay [1] is T1, Glucocorticoid receptor (Homo sapiens, UniProt P04150).
T1 sequence (P04150 whole entry): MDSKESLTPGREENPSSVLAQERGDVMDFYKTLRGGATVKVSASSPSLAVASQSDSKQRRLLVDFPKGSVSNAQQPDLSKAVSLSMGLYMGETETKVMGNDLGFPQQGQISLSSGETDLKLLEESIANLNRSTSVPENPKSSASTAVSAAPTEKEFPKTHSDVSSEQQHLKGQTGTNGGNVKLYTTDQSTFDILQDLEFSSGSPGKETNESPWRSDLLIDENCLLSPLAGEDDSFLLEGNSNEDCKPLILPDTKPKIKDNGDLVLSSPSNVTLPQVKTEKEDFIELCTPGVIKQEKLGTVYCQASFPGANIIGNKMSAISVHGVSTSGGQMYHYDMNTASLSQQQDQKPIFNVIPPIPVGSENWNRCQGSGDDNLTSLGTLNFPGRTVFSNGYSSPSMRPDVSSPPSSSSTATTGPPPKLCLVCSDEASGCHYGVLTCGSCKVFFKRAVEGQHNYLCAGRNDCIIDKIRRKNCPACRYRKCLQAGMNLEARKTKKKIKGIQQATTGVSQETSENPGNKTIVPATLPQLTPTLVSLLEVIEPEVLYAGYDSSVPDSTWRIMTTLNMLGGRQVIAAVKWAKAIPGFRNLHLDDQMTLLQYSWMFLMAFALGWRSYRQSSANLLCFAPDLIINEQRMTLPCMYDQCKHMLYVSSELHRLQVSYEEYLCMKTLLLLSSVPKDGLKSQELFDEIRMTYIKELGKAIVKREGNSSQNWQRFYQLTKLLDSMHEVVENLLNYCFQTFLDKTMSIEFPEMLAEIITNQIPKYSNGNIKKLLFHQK
The experiment in a line: The effective concentration in CV-1 cells for glucocorticoid response element activation (GRE). It is filed as functional, cell-based.

Assay [2] has as its target T1, Glucocorticoid receptor. The experiment in a line: Effective concentration in HepG2 cells transfected with LUC gene (E-sel-Luc). The format is functional, cell-based.

On to `CCOC(=O)C1Oc2cccc(OC)c2-c2ccc3c(c21)C(C)=CC(C)(C)N3` (stereo not given), for which the EC50 (usually the concentration needed to bring the measured effect to its halfway point) on Glucocorticoid receptor [1] was 0.32 µM; at Glucocorticoid receptor [2] it was 0.126 µM.
Consider `COc1cccc2c1-c1ccc3c(c1C(CCO)O2)C(C)=CC(C)(C)N3` (stereo not given), for which the EC50 at Glucocorticoid receptor [1] and on Glucocorticoid receptor [2] was > 5 µM throughout.
For `CCCCC1Oc2cccc(OC)c2-c2ccc3c(c21)C(C)=CC(C)(C)N3` (stereo not given), the values for the EC50 on Glucocorticoid receptor [1] and on Glucocorticoid receptor [2] were 0.405 µM and 0.122 µM, respectively.
As to `COc1cccc2c1-c1ccc3c(c1C(CCN(C)C)O2)C(C)=CC(C)(C)N3` (stereo not given), the EC50 at Glucocorticoid receptor [1] was 0.52 µM; at Glucocorticoid receptor [2], 0.306 µM.
Consider `COc1cccc2c1-c1ccc3c(c1C(C)O2)C(C)=CC(C)(C)N3` (stereo not given), for which the figures for the EC50 at Glucocorticoid receptor [1] and at Glucocorticoid receptor [2] were > 5 µM and 0.015 µM, respectively.
